The values below come from patent publication US20260193272A1, “SELENIUM CONTAINING HETEROCYCLE COMPOUNDS AND USE THEREOF” (HELIOS HUAMING BIOPHARMA CO., LTD., priority 2022, published 2026).

The chains behind the UniProt entries cited, without tags or fusion partners.
UniProt Q9UM07, whole entry: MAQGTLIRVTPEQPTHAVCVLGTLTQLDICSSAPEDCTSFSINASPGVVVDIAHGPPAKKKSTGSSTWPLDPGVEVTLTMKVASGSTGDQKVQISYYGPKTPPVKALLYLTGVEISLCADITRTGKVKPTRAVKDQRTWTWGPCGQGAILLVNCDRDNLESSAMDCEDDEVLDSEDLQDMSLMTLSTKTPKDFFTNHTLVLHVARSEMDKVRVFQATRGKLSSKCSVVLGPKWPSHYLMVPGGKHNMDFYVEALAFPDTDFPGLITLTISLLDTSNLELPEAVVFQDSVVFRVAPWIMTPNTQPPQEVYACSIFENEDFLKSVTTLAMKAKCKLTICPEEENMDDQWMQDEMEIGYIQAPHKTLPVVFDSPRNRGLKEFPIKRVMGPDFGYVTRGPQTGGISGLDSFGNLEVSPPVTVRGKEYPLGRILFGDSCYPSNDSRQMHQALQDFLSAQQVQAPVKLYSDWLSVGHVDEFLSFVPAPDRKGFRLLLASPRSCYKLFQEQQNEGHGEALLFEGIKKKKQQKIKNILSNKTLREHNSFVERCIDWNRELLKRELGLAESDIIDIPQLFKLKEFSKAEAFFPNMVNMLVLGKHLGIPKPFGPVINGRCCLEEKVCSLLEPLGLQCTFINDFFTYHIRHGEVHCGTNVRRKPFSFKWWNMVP

The experiment deals with PAD4 enzyme (Homo sapiens, UniProt Q9UM07). Put plainly: In-vitro measurement for enzymatic PAD4 citrullination inhibition activity (ammonia release). Particulars: read-out: IC50 of inhibition enzymatic activity of PAD4 (Colorimetric assays, Nature Chemical Biology, 2015, 11: 189-191). The procedure:
Citrullination was detected via ammonia release based on published methodology (Nature Chemical Biology, 2015, 11: 189-191).
PAD4 enzyme was diluted to 30 nM in Assay Buffer (100 mM HEPES, 50 mM NaCl, 2 mM DTT, 0.6 mg/ml BSA, pH 8) and added to wells containing various concentrations of compound or DMSO vehicle (0.8% final) in a high-volume black 96-well plate (Greiner). Following a 60-min preincubation at 27° C., the reaction was initiated by the addition of substrate (3 mM BAEE in 100 mM HEPES, 50 mM NaCl, […] CaCl2, 2 mM DTT, pH 8). The reaction was stopped after 90 min by the addition of stop/detection buffer containing 50 mM EDTA, 2.6 mM o-phthalaldehyde and 2.6 mM DTT. Assays were incubated at 27° C. for 120 min before measuring fluorescence (λex 410/λem 476) on an Envision plate reader (PerkinElmer). After which IC50 values were calculated using GraphPad Prism 8.0.

The term IC50 denotes the midpoint of a concentration-inhibition curve.

Regarding `COc1cc(C(=O)N2C[C@H](N)CC[C@@H]2C)cc2nc(-c3cc4[se]c(C)nc4n3Cc3ccccc3)n(C)c12`, the IC50 was 100 to 500 nM.
